Each compound was assayed on NCL (assay: Determination of NCL IC50 (loss of NCL nucleolar intensity, immunofluorescence image analysis)). Conditions: read-out: NCL (IC50 μM); U2OS cells, 3 h treatment, 0.1-10 μM, fold change to control, three-parameter fit.
Format: cell-based
`CCN(CCN(C)C)C(=O)c1cccn2c(=O)c3cc4ccccc4cc3nc12` [Compound 2, N-[2-(dimethylamino)ethyl]-N-ethyl-12-oxo-12H-benzo[g]pyrido[2,1-b]quinazoline-4-carboxamide] gave an IC50 of over 100 µM. Compound `CN(C)CCCNC(=O)c1cccn2c(=O)c3cc4ccccc4cc3nc12` [Compound 9, N-[3-(dimethylamino)propyl]-12-oxo-12H-benzo[g]pyrido[2,1-b]quinazoline-4-carboxamide] has an IC50 of 0.48 µM. Compound `CN(C)CCCCNC(=O)c1cccn2c(=O)c3cc4ccccc4cc3nc12` [Compound 10, N-[4-(dimethylamino)butyl]-12-oxo-12H-benzo[g]pyrido[2,1-b]quinazoline-4-carboxamide] has an IC50 of 1.53 µM. In the case of `CN1CCC(NC(=O)c2cccn3c(=O)c4cc5ccccc5cc4nc23)CC1` [Compound 13, N-(1-methyl-4-piperidyl)-12-oxo-12H-benzo[g]pyrido[2,1-b]quinazoline-4-carboxamide], the IC50 was 1.38 µM. Compound `O=C(NC1CNC1)c1cccn2c(=O)c3cc4ccccc4cc3nc12` [Compound 14, N-(azetidin-3-yl)-12-oxo-12H-benzo[g]pyrido[2,1-b]quinazoline-4-carboxamide] has an IC50 of 0.18 µM. Compound `CC(C)N1CCN(C(=O)c2cccn3c(=O)c4cc5ccccc5cc4nc23)CC1` [Compound 16, 4-(4-isopropylpiperazine-1-carbonyl)-12H-benzo[g]pyrido[2,1-b]quinazoline-12-one] has an IC50 of over 100 µM. `CCN(CC)CCNC(=O)c1cccn2c(=O)c3cc4ccccc4cc3nc12` [Compound 20, N-[2-(diethylamino)ethyl]-12-oxo-12H-benzo[g]pyrido[2,1-b]quinazoline-4-carboxamide] gave an IC50 of 0.19 µM. `CC(C)N(CCNC(=O)c1cccn2c(=O)c3cc4ccccc4cc3nc12)C(C)C` [Compound 21, N-[2-(diisopropylamino)ethyl]-12-oxo-12H-benzo[g]pyrido[2,1-b]quinazoline-4-carboxamide] gave an IC50 of 1.7 µM. `CC(CN(C)C)NC(=O)c1cccn2c(=O)c3cc4ccccc4cc3nc12` (stereo not drawn) [Compound 27, N-[2-(dimethylamino)-1-methyl-ethyl]-12-oxo-12H-benzo[g]pyrido[2,1-b]quinazoline-4-carboxamide] was tested, and the IC50 was 0.16 µM.
